{"sequences": {"note": "Amino acid sequences for entries named in this document (tags omitted).", "UniProt P14842, whole entry": "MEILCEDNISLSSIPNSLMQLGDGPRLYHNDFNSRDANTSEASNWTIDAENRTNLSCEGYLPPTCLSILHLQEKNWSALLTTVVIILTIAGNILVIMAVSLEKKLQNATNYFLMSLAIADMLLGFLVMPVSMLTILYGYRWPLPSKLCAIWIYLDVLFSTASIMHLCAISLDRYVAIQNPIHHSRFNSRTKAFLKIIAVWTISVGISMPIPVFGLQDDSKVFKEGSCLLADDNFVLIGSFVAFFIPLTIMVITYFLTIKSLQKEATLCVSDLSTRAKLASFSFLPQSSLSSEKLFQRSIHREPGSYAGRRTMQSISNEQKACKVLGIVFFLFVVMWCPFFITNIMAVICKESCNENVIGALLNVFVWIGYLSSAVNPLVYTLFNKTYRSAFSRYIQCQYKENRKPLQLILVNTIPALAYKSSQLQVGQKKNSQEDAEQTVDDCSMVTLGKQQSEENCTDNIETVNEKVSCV"}, "source": "BindingDB's records for PubMed 2795135", "about": "(Stanford University, 1989)", "target": "5-hydroxytryptamine receptor 2A (Rattus norvegicus, UniProt P14842)"}
{"molecule": "CCN(CC)C(=O)[C@@H]1C=C2c3cccc4[nH]cc(c34)C[C@H]2N(C)C1", "note": "[(4R,7R)-N,N-diethyl-6-methyl-6,11-diazatetracyclo[7.6.1.0^{2,7}.0^{12,16}]hexadeca-1(16),2,9,12,14-pentaene-4-carboxamide]", "values": [{"measurement": "Ki", "result": 3.5, "unit": "nM"}]}
{"molecule": "O=C(CCCN1CCC2(CC1)C(=O)NCN2c1ccccc1)c1ccc(F)cc1", "note": "[8-[4-(4-fluorophenyl)-4-oxidanylidene-butyl]-1-phenyl-1,3,8-triazaspiro[4.5]decan-4-one]", "values": [{"measurement": "Ki", "result": 1.6, "unit": "nM"}]}
